# Experimental data from US7285687B2 (priority 2002, dated 2007).
# Columns and labels:
# male ICR mice [1] = assay: Suppression of spontaneous activity (SA) in mice, i.v.; format: in vivo, mouse; conditions: @ 30 mg/kg, Table 6
# Experimental: (§1) Male ICR mice (25-32 g), obtained from Harlan (Dublin, Va.), were housed in groups of five. All animals were kept in a temperature-controlled (20-22° C.) environment with a 12-hour light-dark cycle (lights on at 7 a.m.). Separate mice were used for testing each drug dose in the in vivo behavioral procedures. Brain tissue for binding studies was obtained from male Sprague-Dawley rats (150-200 g) purchased from Harlan Laboratories (Dublin, Va.).
# (§2) Measurement of spontaneous activity in mice occurred in standard activity chambers interfaced with a Digiscan Animal Activity Monitor (Omnitech Electronics, Inc., Columbus, Ohio). […]
# (§3) Prior to testing in the behavioral procedures, mice were acclimated to the experimental setting (ambient temperature 22-24° C.) overnight. Pre-injection control values were determined for rectal temperature and tail-flick latency (in sec). Five min after i.v. injection with drug or vehicle, mice were placed in individual activity chambers and spontaneous activity was measured for 10 min. […] Tail-flick latency was measured at 20 min post-injection. […] Antinociception was calculated as percent of maximum possible effect {% MPE=[(test−control latency)/(10-control)]×100}. […] At 30 min post-injection, rectal temperature was measured. This value was expressed as the difference between control temperature (before injection) and temperatures following drug administration (° C.). […]
# male ICR mice [2] = assay: Tail-flick antinociception (TF, % MPE) in mice, i.v.; format: in vivo, mouse; conditions: @ 30 mg/kg, Table 6
# Experimental: as §1, §2, §3
smiles,measurement,setting,value
CCCCCCC(C)(C)c1cc(OC)c(C2(O)CCOCC2)c(OC)c1,S.A. % effect at dose,male ICR mice [1],36% @ 30
same,T.F. % effect at dose,male ICR mice [2],23% @ 30
